# Results: BindingDB's records for doi:10.1021/jm060777o (Abbott Laboratories, 2006)
# Sequences of proteins named here, by UniProt entry; tags and fusion partners are left off.
# UniProt P27487, whole entry: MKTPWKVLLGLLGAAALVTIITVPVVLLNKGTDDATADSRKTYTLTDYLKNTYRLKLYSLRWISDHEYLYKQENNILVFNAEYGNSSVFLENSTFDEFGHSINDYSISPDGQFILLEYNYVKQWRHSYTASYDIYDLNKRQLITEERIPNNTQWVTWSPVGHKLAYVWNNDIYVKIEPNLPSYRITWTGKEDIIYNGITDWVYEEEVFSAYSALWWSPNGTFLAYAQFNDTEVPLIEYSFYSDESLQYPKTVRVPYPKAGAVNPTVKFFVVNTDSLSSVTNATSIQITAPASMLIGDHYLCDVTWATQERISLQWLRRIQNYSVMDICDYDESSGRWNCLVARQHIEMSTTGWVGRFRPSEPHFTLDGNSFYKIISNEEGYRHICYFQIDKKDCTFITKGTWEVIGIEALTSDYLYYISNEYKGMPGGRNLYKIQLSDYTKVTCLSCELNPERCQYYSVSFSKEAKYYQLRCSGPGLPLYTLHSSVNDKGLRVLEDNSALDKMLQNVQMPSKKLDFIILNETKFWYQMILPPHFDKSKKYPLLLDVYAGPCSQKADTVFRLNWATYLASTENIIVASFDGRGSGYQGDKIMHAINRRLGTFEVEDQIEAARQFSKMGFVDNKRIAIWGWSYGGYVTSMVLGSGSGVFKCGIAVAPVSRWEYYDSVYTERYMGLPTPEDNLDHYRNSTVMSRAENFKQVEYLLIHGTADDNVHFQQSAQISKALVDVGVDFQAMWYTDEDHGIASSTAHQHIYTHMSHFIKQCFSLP
# Target: Dipeptidyl peptidase 4 (Homo sapiens, UniProt P27487)
structure (smiles),measurement,value
"CCC(C)[C@@H](N)C(=O)N1[C@H](C#N)CC[C@H]1c1ccccc1 (stereo partly drawn) [(2S,5S)-1-[(2R,3R)-2-amino-3-methylpentanoyl]-5-phenylpyrrolidine-2-carbonitrile]",Ki,> 30 µM
